Laboratory results as given in ChEMBL document CHEMBL2424579, “Quinazolin-4-one derivatives as selective histone deacetylase-6 inhibitors for the treatment of Alzheimer's disease” (J Med Chem, 2013).

Sequences of proteins named here, by UniProt entry; tags and fusion partners are left off.
UniProt Q13547, whole entry: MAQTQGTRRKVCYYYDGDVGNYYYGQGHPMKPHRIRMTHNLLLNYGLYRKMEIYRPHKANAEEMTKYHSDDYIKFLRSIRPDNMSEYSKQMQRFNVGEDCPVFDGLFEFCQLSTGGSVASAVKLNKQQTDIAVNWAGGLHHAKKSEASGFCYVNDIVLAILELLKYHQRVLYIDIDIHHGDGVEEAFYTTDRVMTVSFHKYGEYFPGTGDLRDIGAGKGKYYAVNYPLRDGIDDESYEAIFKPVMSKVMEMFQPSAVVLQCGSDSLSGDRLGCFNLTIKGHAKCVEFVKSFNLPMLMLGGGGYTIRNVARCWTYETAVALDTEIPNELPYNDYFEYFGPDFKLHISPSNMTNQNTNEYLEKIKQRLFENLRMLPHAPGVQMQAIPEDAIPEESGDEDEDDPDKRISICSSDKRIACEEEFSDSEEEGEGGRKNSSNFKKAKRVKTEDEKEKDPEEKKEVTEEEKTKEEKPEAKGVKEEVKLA
UniProt P05067, whole entry: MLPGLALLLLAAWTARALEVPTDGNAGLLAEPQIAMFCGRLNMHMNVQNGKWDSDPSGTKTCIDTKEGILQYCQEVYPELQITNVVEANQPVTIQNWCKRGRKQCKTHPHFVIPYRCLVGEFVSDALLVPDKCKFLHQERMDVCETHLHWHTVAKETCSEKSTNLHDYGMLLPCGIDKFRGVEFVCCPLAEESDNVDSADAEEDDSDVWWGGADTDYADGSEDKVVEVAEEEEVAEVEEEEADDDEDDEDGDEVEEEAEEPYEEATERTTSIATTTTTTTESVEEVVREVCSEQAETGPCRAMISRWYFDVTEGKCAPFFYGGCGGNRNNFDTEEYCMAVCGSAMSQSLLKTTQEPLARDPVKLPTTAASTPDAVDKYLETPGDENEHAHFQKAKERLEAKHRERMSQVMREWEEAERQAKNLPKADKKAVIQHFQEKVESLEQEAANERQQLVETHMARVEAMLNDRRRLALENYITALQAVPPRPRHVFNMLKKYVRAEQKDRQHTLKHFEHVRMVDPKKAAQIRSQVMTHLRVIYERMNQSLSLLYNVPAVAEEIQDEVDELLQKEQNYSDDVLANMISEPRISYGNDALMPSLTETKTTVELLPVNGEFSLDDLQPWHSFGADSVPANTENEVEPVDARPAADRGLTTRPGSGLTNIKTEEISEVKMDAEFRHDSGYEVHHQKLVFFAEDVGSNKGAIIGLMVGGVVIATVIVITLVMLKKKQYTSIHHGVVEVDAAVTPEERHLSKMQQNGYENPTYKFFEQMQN

What was measured:
Histone deacetylase 1 = Histone deacetylase 1 (Homo sapiens, UniProt Q13547); test: Inhibition of human recombinant HDAC1 expressed in baculovirus/sf9 cells using RHKKAc as substrate
[1] = molecular target: Amyloid-beta precursor protein (Homo sapiens, UniProt P05067); test: Inhibition of amyloid beta aggregation (unknown origin) after 4 hrs by thioflavin S assay in absence of Zn2+

Cc1nc2cc(/C=C/C(=O)NO)ccc2c(=O)n1-c1ccccc1
IC50 (Histone deacetylase 1): 4.89 µM | IC50 [1]: > 50 µM
